The values below come from DBAASP.

The subject of assay [1] is Erwinia amylovora PMV 6076. Kind of assay: ≥ marks a high value that may be exact or a test limit, other limits are often not marked, values filed in µg/mL are converted to µM.
For assay [2], the system named is Pseudomonas syringae pv. syringae EPS 94. The assay is described as above.

Values after ≈ are worked out from the molar mass of the structure shown.

In general, MIC refers to the smallest concentration in the dilution series that meets the test's criterion for growth inhibition. Low readings indicate greater potency, high ones weaker potency. As for `CC[C@H](C)[C@H](NC(=O)[C@H](CC(C)C)NC(=O)[C@H](C)NC(=O)[C@@H]1CCCN1C(=O)[C@H](CC(C)C)NC(=O)CNC(=O)[C@@H](NC(=O)[C@@H](NC(=O)[C@H](C)NC(=O)[C@@H]1CCCN1C(=O)CNC(=O)[C@H](C)NC(=O)[C@H](CC(C)C)NC(=O)[C@H](Cc1ccc(O)cc1)NC(=O)[C@H](CCCCN)NC(=O)[C@H](CC(C)C)NC(=O)[C@@H](NC(=O)[C@H](CCCCN)NC(=O)[C@H](CCCCN)NC(=O)[C@H](Cc1ccccc1)NC(=O)[C@H](CC(C)C)NC(=O)[C@H](CCCCN)NC(=O)[C@H](CCCCN)NC(=O)[C@@H](N)CO)[C@@H](C)CC)[C@@H](C)O)[C@@H](C)O)C(=O)N[C@@H](CO)C(=O)N[C@@H](Cc1c[nH]c2ccccc12)C(=O)O` [SKKLFKKILKYLAGPATTGLPALISW], the MIC in assay [1] and in assay [2] was 1.77 µM (≈ 5.03 µg/mL) each time.
